Results: ChEMBL document CHEMBL3352357, “Synthesis and pharmacological evaluation of 5-pyrrolidinylquinoxalines as a novel class of peripherally restricted κ-opioid receptor agonists” (J Med Chem, 2014)
Activity calls are given as the source filed them. The calls are words filed in the database; no cut-off is given here.

Amino acid sequences for entries named in this document (tags omitted). A change or cut given only in a name is not applied to a line headed by its entry.
UniProt P41143, whole entry, looked up: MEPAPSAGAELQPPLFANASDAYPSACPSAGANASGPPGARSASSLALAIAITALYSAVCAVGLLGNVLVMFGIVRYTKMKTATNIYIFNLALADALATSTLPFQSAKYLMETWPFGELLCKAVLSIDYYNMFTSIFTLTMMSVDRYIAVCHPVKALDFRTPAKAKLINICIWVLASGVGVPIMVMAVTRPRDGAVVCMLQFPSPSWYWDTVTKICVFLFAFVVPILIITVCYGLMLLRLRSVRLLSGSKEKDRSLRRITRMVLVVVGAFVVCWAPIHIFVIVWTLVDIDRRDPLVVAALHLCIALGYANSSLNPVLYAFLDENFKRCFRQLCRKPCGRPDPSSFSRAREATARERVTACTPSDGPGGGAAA
UniProt Q60492, whole entry, looked up: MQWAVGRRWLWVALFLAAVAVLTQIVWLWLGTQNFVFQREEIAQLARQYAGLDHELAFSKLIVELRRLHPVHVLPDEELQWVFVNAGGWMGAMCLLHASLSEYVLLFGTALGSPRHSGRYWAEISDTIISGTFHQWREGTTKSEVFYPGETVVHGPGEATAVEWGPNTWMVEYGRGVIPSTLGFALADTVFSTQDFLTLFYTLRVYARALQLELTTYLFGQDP
UniProt P41145: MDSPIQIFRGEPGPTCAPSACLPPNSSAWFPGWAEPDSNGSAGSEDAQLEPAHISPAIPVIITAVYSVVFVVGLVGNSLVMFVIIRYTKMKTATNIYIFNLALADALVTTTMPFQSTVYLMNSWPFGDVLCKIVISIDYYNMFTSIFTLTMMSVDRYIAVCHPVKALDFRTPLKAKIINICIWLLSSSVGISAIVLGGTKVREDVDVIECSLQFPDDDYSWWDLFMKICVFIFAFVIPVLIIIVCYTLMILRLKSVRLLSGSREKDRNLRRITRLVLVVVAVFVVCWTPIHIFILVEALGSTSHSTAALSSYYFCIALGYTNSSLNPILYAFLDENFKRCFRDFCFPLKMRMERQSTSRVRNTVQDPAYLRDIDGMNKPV
UniProt P35372, whole entry, looked up: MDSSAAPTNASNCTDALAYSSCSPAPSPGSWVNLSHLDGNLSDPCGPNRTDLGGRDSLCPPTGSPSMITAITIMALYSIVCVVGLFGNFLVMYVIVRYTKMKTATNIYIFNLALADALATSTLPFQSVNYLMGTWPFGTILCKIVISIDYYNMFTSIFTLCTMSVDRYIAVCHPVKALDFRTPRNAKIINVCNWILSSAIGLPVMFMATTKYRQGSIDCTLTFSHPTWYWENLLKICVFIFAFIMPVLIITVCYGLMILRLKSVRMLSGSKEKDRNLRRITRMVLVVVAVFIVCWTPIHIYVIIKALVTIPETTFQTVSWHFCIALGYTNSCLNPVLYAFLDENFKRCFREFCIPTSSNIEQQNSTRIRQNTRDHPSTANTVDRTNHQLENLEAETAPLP
UniProt P41144: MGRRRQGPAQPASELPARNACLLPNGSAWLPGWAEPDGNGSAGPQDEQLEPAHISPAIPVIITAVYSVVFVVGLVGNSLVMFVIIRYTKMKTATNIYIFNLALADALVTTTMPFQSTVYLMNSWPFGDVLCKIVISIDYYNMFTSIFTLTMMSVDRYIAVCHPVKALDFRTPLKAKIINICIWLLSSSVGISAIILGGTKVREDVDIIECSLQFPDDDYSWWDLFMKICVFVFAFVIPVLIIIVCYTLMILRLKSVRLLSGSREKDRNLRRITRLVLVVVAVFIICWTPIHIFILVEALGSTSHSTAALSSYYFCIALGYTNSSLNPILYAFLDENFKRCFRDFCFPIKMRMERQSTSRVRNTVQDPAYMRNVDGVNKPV

Columns and labels:
[1] = target: Delta-type opioid receptor (Homo sapiens, UniProt P41143); experiment: Displacement of [3H]-deltorphine from human delta opioid receptor expressed in CHO-K1 cells at 10 uM by scintillation counting analysis; type: cell-based
[2] = Displacement of [3H]-DTG from sigma-2 receptor in rat liver membrane at 10 uM in presence of (+)-pentazocine; type: cell membranes
Mus musculus [3] = experiment: Analgesic activity in male NMRI mouse assessed as 1 mN von frey filaments-induced referred allodynia at 1 to 10 mg/kg, iv after 5 mins challenged with mustard oil measured after 20 to 40 mins
[4] = target: Sigma non-opioid intracellular receptor 1 (Cavia porcellus) (UniProt Q60492); experiment: Displacement of [3H]-(+)-pentazocine from sigma-1 receptor in guinea pig brain cortex membranes at 10 uM; type: cell membranes; conditions: Cerebral cortex
Mus musculus [5] = experiment: Analgesic activity in male NMRI mouse assessed as 16 mN von frey filaments-induced hyperalgesia at 1 to 10 mg/kg, iv after 5 mins challenged with mustard oil measured after 20 to 40 mins
Mus musculus [6] = experiment: Analgesic activity in male iv dosed NMRI mouse assessed as inhibition of mustard oil-induced spontaneous pain response treated after 5 mins challenged with mustard oil measured after 2 to 12 mins
Mus musculus [7] = experiment: Analgesic activity in male NMRI mouse assessed as inhibition of mustard oil-induced visceral pain at 21.5 mg/kg, iv after 5 mins challenged with mustard oil measured after 2 to 12 mins
Cavia porcellus = species: Cavia porcellus; experiment: Displacement of [3H]-(+)-MK-801 from NMDA receptor PCP binding site in guinea pig brain cortex membranes at 10 uM; type: cell membranes
[8] = target: Kappa-type opioid receptor (Homo sapiens, UniProt P41145); experiment: Agonist activity at human kappa opioid receptor expressed in HEK-293 cells assessed as stimulation of [35S]-GTPgammaS binding at 1 uM after 30 mins by liquid scintillation counting analysis; type: functional, cell-based; conditions: HEK293
Outline: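 Membranes from HEK 293 cells expressing human κ receptor. [35S]GTPγS binding was run for 30 min at 30 °C with 1.00% DMSO vehicle. Bound [35S]GTPγS was quantified. Compounds giving under 50% agonist activity at 1 μM were scored not active.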

Mu-type opioid receptor = Mu-type opioid receptor (Homo sapiens, UniProt P35372); experiment: Displacement of [3H]-naloxone from human mu opioid receptor expressed in CHO-K1 cells at 10 uM by scintillation counting analysis; type: cell-based
[9] = target: Kappa-type opioid receptor (Cavia porcellus) (UniProt P41144); experiment: Displacement of [3H]Cl-977 from kappa opioid receptor in guinea pig brain membranes at 10 uM after 2 hrs by scintillation counting analysis; conditions: Membrane

O=C(Cc1ccc(Cl)c(Cl)c1)N1CCN(Cc2ccccc2)[C@@H]2CCC[C@H](N3CCCC3)[C@H]21
inhibition [1]: 39%

O=C(Cc1ccc(Cl)c(Cl)c1)N1CCNC2CCCC(N3CCC(O)C3)C21 (stereo not given)
inhibition [2]: 0%
Activity (Mus musculus [3]): inactive
inhibition [4]: 4%
inhibition [1]: 0%
Activity (Mus musculus [5]): inactive
inhibition (Mus musculus [6]): Dose-dependent effect

CCC(=O)N1CCN(C(=O)Cc2ccc(Cl)c(Cl)c2)C2C(N3CCCC3)CCCC21 (stereo not given)
inhibition [2]: 0%

CN1CCN(C(=O)Cc2ccc(Cl)c(Cl)c2)C2C1CCCC2N1CCC(O)C1 (stereo not given)
inhibition [1]: 27%

O=C(Cc1ccc(Cl)c(Cl)c1)N1CCNC2CCCC(N3CCCC3)C21 (racemic)
inhibition [4]: 3%
inhibition [1]: 10%
inhibition (Mus musculus [7]): Active

CCOC(=O)N1CCN(C(=O)Cc2ccc(Cl)c(Cl)c2)C2C(N3CCCC3)CCCC21 (stereo not given)
inhibition [4]: 0%
inhibition (Cavia porcellus): 0%
inhibition [1]: 32%

COC(=O)N1CCN(C(=O)Cc2ccc(Cl)c(Cl)c2)[C@H]2[C@H]1CCC[C@@H]2N1CCCC1
inhibition [2]: 0%

O=C(O)CC(=O)N1CCN(C(=O)Cc2ccc(Cl)c(Cl)c2)C2C(N3CCCC3)CCCC21 (stereo not given)
inhibition [2]: 4%
inhibition [4]: 0%
inhibition (Cavia porcellus): 18%
inhibition [1]: 7%
Activity [8]: < 50%
inhibition (Mu-type opioid receptor): 19%
inhibition [9]: 41%

CN1CCN(C(=O)Cc2ccc(Cl)c(Cl)c2)C2C1CCCC2N1CCCC1 (stereo not given)
inhibition [2]: 3%
inhibition [4]: 3%
inhibition [1]: 16%

O=C(O)CCC(=O)N1CCN(C(=O)Cc2ccc(Cl)c(Cl)c2)C2C(N3CCCC3)CCCC21 (stereo not given)
inhibition [4]: 0%
inhibition (Cavia porcellus): 0%
inhibition [1]: 21%
inhibition (Mu-type opioid receptor): 31%
inhibition [9]: 45%

CC(=O)N1CCN(C(=O)Cc2ccc(Cl)c(Cl)c2)C2C(N3CCCC3)CCCC21 (stereo not given)
inhibition [2]: 0%
inhibition [4]: 24%
inhibition (Cavia porcellus): 0%
inhibition [1]: 0%
